# Ab-14 light chain CDR variants: yeast mating affinities

From the AlphaSeq antibody data of Engelhart et al. 2022 (doi:10.1038/s41597-022-01779-4), copy in the FLAb collection.

Target: peptide PDVDLGDISGINAS, taken from heptad repeat 2 (HR2) of SARS-CoV-2 spike.

Parent scFv Ab-14: VH joined to VL by a (GGGGS)3 linker. Changes lie in the light chain CDRs alone.
VH: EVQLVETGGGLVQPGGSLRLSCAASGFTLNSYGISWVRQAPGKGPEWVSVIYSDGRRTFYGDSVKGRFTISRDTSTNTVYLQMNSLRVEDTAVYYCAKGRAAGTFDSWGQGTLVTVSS
VL: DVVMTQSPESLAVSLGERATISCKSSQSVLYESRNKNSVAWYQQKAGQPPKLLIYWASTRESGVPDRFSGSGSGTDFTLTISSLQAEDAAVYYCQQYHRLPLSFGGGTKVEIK

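Phage display of a naive human antibody library on the peptide gave the parent. The library (AAYL50) carries one to three amino acid substitutions per variant, with no insertions or deletions. In AlphaSeq, yeast of one mating type display the scFv and yeast of the other type display the target. The frequency of each diploid, read from paired DNA barcodes, reflects how well the two displayed proteins bind. A regression on co-assayed BCL2-family reference pairs converts the normalised counts of each replicate to an apparent Kd. The assay was run in three technical replicates.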

Changes read parent residue, position, new residue, counted from the first residue of the VL shown. Kd is apparent (estimated from mating counts) and averaged on the log scale over replicates with a signal. Smaller is tighter. "no signal" marks a missing value. The strain was present, yet no cells mated with the target were sequenced in any replicate, which points to weak or no binding. As a blank, each scFv also met three strains without target: over library AAYL50, 18% of these pairings were detected, typically at 15 µM and seldom below 970 nM.

apparent Kd,seen in,changes
no signal,0 of 3,A40E+E61P
6.5 nM,3 of 3,S25G+V29N+K36Q
no signal,0 of 3,K24W+S58L+Q96A
no signal,0 of 3,A40W+R99H
4.3 nM,3 of 3,K24Y+S26G+W56K
38 µM,1 of 3,S58K+Q95M+H98G
no signal,0 of 3,S28W+Q95H+Q96Y
4.3 nM,3 of 3,L30Q+R34M+S103F
93 nM,3 of 3,K24H+N35F+T59S
3.1 nM,3 of 3,L30H+K36S+S62I
33 nM,3 of 3,S33M+R60A+P101F
38 µM,1 of 3,R34A+A40P+H98Q
no signal,0 of 3,A40P+S58L+L102G
no signal,0 of 3,S28L+S103I
6.8 µM,1 of 3,N35C+K36P+H98W
73 nM,3 of 3,E32Q+S58V+R99V
8.5 µM,1 of 3,L30A+N35Y+K36C
4.0 nM,3 of 3,Q27D+K36L+L100D
2.9 nM,3 of 3,S25W+N35P+W56T
41 µM,2 of 3,N37C+S38D+R60P
no signal,0 of 3,Q27T+A57F+L102A
no signal,0 of 3,R60H+L100K+P101C
no signal,0 of 3,Q27N+K36T+T59N
no signal,0 of 3,S28F+R60T+E61Y
no signal,0 of 3,S38T+V39D+E61M
no signal,0 of 3,Y31W+Q95A+S103V
11 µM,1 of 3,S25A+Q27C+A57Q
no signal,0 of 3,S28G+K36C+N37T
9.9 nM,3 of 3,Y31V+E32D+Y97Q
no signal,0 of 3,Y31F+N37Y+S62F
no signal,0 of 3,N37K+A57N+Y97V
11 µM,1 of 3,S58K+E61R+S103C
1.2 µM,1 of 3,R34I+V39L+E61W
38 µM,1 of 3,S33Y+N37E+Q96I
1.3 nM,3 of 3,S25Q+W56G+A57C
no signal,0 of 3,Q27W+R60Y+Q95W
400 nM,3 of 3,K24H+E32R
12 nM,3 of 3,R34F+Q96I+S103V
38 µM,1 of 3,R34W+A57V+S58C
no signal,0 of 3,Q27P+R34G+P101L
48 µM,1 of 3,S25P+Y97P
no signal,0 of 3,Q27N+R60G+L102P
2.5 µM,3 of 3,K36D+R60Q+L100M
no signal,0 of 3,L30K+N35S+Q95M
540 nM,3 of 3,N35A+Y97L
27 nM,3 of 3,T59C+S62Y